# Assay results from BindingDB's records for doi:10.1038/nsmb704 (University of California Irvine, 2004).
# By UniProt entry, the sequences of proteins in these tests, tags left out. Residues count along the entry.
# UniProt P29473, 2-1205 N368D limits assumed: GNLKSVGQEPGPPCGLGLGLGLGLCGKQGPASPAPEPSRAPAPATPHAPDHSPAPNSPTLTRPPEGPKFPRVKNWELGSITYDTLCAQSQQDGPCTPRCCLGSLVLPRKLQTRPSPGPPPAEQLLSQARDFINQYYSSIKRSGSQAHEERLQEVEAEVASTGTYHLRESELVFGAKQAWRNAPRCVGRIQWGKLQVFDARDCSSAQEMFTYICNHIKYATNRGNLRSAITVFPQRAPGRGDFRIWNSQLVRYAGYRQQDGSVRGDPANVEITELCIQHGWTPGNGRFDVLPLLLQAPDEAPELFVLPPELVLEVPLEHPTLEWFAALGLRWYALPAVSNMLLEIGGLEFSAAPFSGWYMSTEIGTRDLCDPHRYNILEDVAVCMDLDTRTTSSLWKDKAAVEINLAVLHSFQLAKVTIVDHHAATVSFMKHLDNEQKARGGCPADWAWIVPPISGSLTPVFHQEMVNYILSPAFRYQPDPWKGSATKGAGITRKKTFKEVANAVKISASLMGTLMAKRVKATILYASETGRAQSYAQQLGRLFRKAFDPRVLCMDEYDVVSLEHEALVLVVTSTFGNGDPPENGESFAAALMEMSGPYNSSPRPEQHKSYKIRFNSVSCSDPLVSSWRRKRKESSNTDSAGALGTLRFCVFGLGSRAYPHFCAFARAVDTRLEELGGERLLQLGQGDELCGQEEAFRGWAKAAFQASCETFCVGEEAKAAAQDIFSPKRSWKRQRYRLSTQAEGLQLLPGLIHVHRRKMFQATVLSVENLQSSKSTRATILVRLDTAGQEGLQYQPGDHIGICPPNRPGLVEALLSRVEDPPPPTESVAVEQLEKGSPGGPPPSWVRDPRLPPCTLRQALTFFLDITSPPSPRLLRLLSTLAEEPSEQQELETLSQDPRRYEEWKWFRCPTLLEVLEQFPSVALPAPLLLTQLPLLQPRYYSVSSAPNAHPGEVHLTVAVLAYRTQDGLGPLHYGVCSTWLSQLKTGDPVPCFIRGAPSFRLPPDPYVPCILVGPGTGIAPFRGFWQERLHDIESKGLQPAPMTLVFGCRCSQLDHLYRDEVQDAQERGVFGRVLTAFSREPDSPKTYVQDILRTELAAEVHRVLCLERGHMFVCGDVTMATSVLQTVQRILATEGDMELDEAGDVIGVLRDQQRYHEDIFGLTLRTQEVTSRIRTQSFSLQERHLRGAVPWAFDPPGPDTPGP
# Molecular target: Nitric oxide synthase, endothelial [N368D] (Bos taurus, UniProt P29473, N368D)
# Test: NOS Enzyme Inhibition Assay
# Settings: pH 7.5; 30 °C
structure (smiles),measurement,value
NC(=O)[C@@H]1C[C@@H](NC(=O)[C@@H](N)CCC/N=C(\N)N[N+](=O)[O-])CN1 [JMC522060 Compound 3],Ki,5.1 µM
